According to US20130280318A1, “Tissue Scaffolds for Controlled Release of Active Agents” (The Trustees of Columbia University in the City of New York, priority 2010, published 2013):

Conditions: Circular Dichroism Spectroscopy of released TGF-β3

Question: For bovine serum albumin [BSA], which “growth factor structure (ellipticity, degree of folding)” value is on record?
Answer: Its value is “effective in preserving the α-helical structure of TGF-β3”.
